# Target: T1, A2a receptor cell membrane (human origin) (Homo sapiens, UniProt P29274)
# T1 construct: purchased PerkinElmer RBHA2AM400UA
# Experiment: Competitive inhibition constant (Ki) for adenosine A2a receptor, [3H]-CGS-21680 radioligand binding
# Settings: selectivity ratio A1 over A2a
# Protocol: A2a receptor cell membrane (human origin): PerkinElmer, RBHA2AM400UA
# A2a test buffer: 50 mM Tris-HCl, 10 mM MgCl2, 1 mM EDTA, pH7.4
# The A1 receptor cell membrane was diluted to 0.025 μg/μl with the A1 test buffer and the A2a receptor cell membrane was diluted to 0.05 μg/μl with the A2a test buffer to obtain an A1 receptor cell membrane dilution and an A2a receptor cell membrane dilution.
# The tested compound and CGS15943 were gradiently diluted with DMSO. 1 μl test compound, high-value control (0.5% DMSO), low-value control (1000 nM CGS15943) were added to a 96-well plate, wherein each well was added with 100 μl A1 receptor cell membrane dilution (containing 2.5 μg cell membrane) to obtain an A1 detection plate. […]
# After the incubation, the reaction solutions in the A1 detection plate and the A2a detection plate were transferred to two Unifilter-96 GF/C filter plates. […] After sealing the top of the filter plates, the plates were read in the counter MicroBeta2 Reader.
# Data analysis: The inhibition rate was calculated according to the following formula: […]
# IC50 was fitted by EXCEL XLfit. The competitive inhibition constant (Ki) was calculated according to the formula: Ki=IC50/(1+the concentration of the isotope-labelled ligands/Kd); Kd is the dissociation constant of the isotope-labeled ligands.
smiles,measurement,value
"Cc1cc(-c2cc(-n3cc(C(N)=O)cn3)c(N)nc2-c2ccc(F)cc2)cc(Cl)n1 [Compound 26, 1-(6-amino-2′-chloro-2-(4-fluorophenyl)-6′-methyl-[3,4′-bipyridine]-5-yl)-1H-pyrazol-4-carboxamide]",Ki(A1)/Ki(A2a),46.8

# — US20220017483A1, “AMINOPYRIDINE COMPOUND, PREPARATION METHOD THEREFOR AND USE THEREOF” (SICHUAN-KELUN-BIOTECH BIOPHARMACEUTICAL CO., LTD, priority 2018, published 2022)
